These results are taken from publication PMC6098021.

The target in the test is Src kinase, endogenous in LLC-PK1 cells and lines derived from PY-17 (pig (endogenous in LLC-PK1)). The experiment in a line: co-IP; lysates of AAC-19 (rat α1) and Y260A mutant cells; α1 Na/K-ATPase/Src interaction by immunoprecipitation and immunoblot, bands quantified, n = 3; precipitating antibody not named for this panel.

Consider “rat α1 Na/K-ATPase Y260A mutant (from UniProt P06685 1-1023) (natural protein)”, for which the percent decrease in binding against wild type (AAC-19) was determined as 60%.
